# Reference: PubChem BioAssay AID624263 (National Center for Advancing Translational Sciences (NCATS), 2012)
# This is a selection; strong and weak results do not stand in their true shares. Active and inactive are the calls of the source. Calls come from the whole dose curve; as a rule, active = well fitted activation curve with a large enough effect; inconclusive = small, poorly fitted or top-dose-only effect; inactive = flat fitted curve, though single readings scatter; cell line not stated here.
# Experiment: A Quantitative High throughput Screen to Identify Chemical Modulators of PINK1 Expression; note: % of control where 0% means no effect; nearly all actives have a fitted effect of over 65% in size
# Settings: PINK1 immunofluorescence, high-content cytometry, 24 h; series mostly up to 76.6 µM; activation (PINK1 increase): at the top concentration
row,Structure (SMILES),activation (PINK1 increase)
1,CC(=O)Nc1ccc([As](=O)(O)O)cc1,inactive: 1.78%
2,O=C(O)c1ccccc1[As](=O)(O)O,inactive: -1.03%
3,CCCC1OP(N)(=O)OCC1CC (stereo not given),inactive: -0.486%
4,Nc1cccc2ccc([As](=O)(O)O)cc12,inactive: 2.15%
5,CCCCCCCCCCCCCCCC1C[N+](C)(C)CCOP(C)(=O)O1 (stereo not given),inactive: -1.94%
6,CP(=O)(Nc1ccc(Cl)cc1Cl)Oc1ccccc1 (stereo not given),inactive: -0.831%
7,CP(=O)(OCCOc1ccccc1)OCCOc1ccccc1,inactive: -0.501%
8,CCN(N=Nc1nonc1N)c1nonc1N,inactive: -0.337%
9,CN1CCCC(OC(=O)C(c2ccccc2)c2ccccc2)C1 (stereo not given),inactive: -0.892%
10,Clc1ccc(Cl)c(NC2=NCC(CBr)S2)c1 (stereo not given),inactive: -0.413%
11,CN(C)CCOC(=O)C(O)(c1ccccc1)C1CCCC1 (stereo not given),inactive: -0.0586% [at 38.3 µM]
12,COc1ccccc1OP(=O)(Nc1ccc(C)cn1)Oc1ccccc1OC,inactive: 6.53%
13,Cc1ccc(OP(=O)(Nc2nccs2)Oc2ccc(C)cc2)cc1,inactive: 0.804%
14,CN(C(=O)Cc1ccc(Cl)c(Cl)c1)[C@H]1CCCC[C@H]1N1CCCC1,inactive: -0.438%
15,COc1ccccc1OP(C)(=O)Nc1ccc(Br)cc1 (stereo not given),inactive: 4.72%
16,Cc1ccc(N/C(=N/P(=O)(N2CCOCC2)N2CCOCC2)N2CCOCC2)cc1,inactive: -0.825%
17,NC(=O)c1cc([N+](=O)[O-])cc([N+](=O)[O-])c1N,inactive: -1.39%
18,O=[N+]([O-])c1cc2c(cc1[N+](=O)[O-])OCO2,inactive: 5.85%
19,CCc1ccc(OP(C)(=O)O)cc1,inactive: 0.691%
20,O=[N+]([O-])C1C(O)C(O)C([N+](=O)[O-])C(O)C1O (stereo not given),inactive: 1.54%

row,Structure (SMILES),activation (PINK1 increase)
1,CP(=O)(Nc1ccccn1)Oc1ccccc1 (stereo not given),inactive: -0.527%
2,COc1ccccc1OP(C)(=O)Nc1ccc(C)cc1C (stereo not given),inactive: 0.0458%
3,Oc1ccccc1CNc1ccccn1,inactive: -7.39% [at 38.3 µM]
4,O=C(NC(Sc1ccncn1)C(Cl)(Cl)Cl)c1ccccc1 (stereo not given),inactive: 2.86%
5,Cc1c(NP(C)(=O)Oc2ccc(C(C)C)cc2)c(=O)n(-c2ccccc2)n1C (stereo not given),inactive: -0.171%
6,Nc1cc(N)c2nonc2c1[N+](=O)[O-],inactive: 0.973%
7,CC(C)CC(=O)NC(Sc1ccc(Cl)cc1)C(Cl)(Cl)Cl (stereo not given),inactive: 2.92% [at 38.3 µM]
8,O=[N+]([O-])c1cc([N+](=O)[O-])c(Nc2ccccn2)c([N+](=O)[O-])c1,inactive: -1.07%
9,CP(=O)(Oc1ccccc1)N1CCOC1=O (stereo not given),inactive: -0.387%
10,Cc1ccc(NP(=O)(Oc2ccccc2)Oc2ccccc2)nc1,inactive: 3.43%
11,CCc1ccc(OP(C)(=O)Nc2cccnc2)cc1 (stereo not given),inactive: -0.439%
12,CCc1nc2c(n1)c1c(non1O)c1c2no[n+]1[O-],inactive: 7.44%
13,O=[N+]([O-])c1cc([N+](=O)[O-])c(CCNc2ccccc2)c([N+](=O)[O-])c1,inactive: 0.0038%
14,O=[N+]([O-])c1cccc2n[nH]nc12,inactive: -1.22%
15,CC(=O)N1C2C3N(C(C)=O)C1C1N(C(C)=O)C(C(N1C(C)=O)N3C(C)=O)N2C(C)=O,inactive: 0.274%
16,COc1ccccc1OP(C)(=O)Nc1c(C)n(C)n(-c2ccccc2)c1=O (stereo not given),inactive: -0.0754%
17,O=C(OCCCN1CCCC1)C(O)(c1ccccc1)C1CCCCC1 (stereo not given),inactive: 1.7%
18,CCN(CC)CC(O)COC(=O)C(O)(c1ccccc1)C1CCCCC1 (stereo not given),inactive: -1.18%
19,COc1ccc(OP(C)(=O)Nc2ccc(Br)cc2)cc1 (stereo not given),inactive: 1.33%
20,COc1ccc(C2=NCC(CBr)S2)cc1 (stereo not given),inactive: 1.67%

row,Structure (SMILES),activation (PINK1 increase)
1,CC1CCN(C(=O)Oc2c(Cl)cc(Cl)c3cccnc23)CC1,inactive: 5.93%
2,c1cc(-c2nn[nH]n2)ccc1-c1nn[nH]n1,inactive: 0.709%
3,CC(C)c1nc(Nc2ccccc2)n(P(=O)(N(C)C)N(C)C)n1,inactive: 1.82%
4,CN(C)C(=O)c1c([N+](=O)[O-])cc([N+](=O)[O-])cc1[N+](=O)[O-],inactive: -3.14%
5,CC(C)=N/N=C(\N)N[N+](=O)[O-],inactive: 0.872%
6,CN(C)C(=O)OCCc1n(C)cc[n+]1C,inactive: 0.584%
7,CCN(/C(=N/P(=O)(N1CCOCC1)N1CCOCC1)N1CCOCC1)c1ccc(OC)cc1,inactive: 0.26%
8,COc1ccccc1OP(C)(=O)Nc1ccccc1Br (stereo not given),inactive: 2.76%
9,CC(C)(C)c1ccc(OP(C)(=O)O)cc1,inactive: 2.18% [at 38.3 µM]
10,Nc1ccc([As](=O)(O)c2ccc(N)cc2)cc1,inactive: 0.02%
11,C[N+]1=C2C=CC=CC=C2SC12C([N+](=O)[O-])=CC([N+](=O)[O-])=C[C-]2[N+](=O)[O-] (stereo not given),inactive: -1.67%
12,CP(=O)(OC12CC3CC(CC(C3)C1)C2)OC12CC3CC(CC(C3)C1)C2,inactive: 0.332% [at 38.3 µM]
13,CCOC(=O)c1ccc(NP(C)(=O)Oc2ccc(Cl)cc2)cc1 (stereo not given),inactive: 4.33%
14,O=P(/N=c1/nc(-c2ccccc2)n(-c2ccccc2)s1)(Nc1ccccc1)Nc1ccccc1,inactive: 0.463%
15,O=C(Nc1cc([As](=O)(O)O)ccc1O)c1ccccc1,inactive: -0.0579%
16,O=P1(N(CCCl)CCCl)OCCCS1 (stereo not given),inactive: -0.613%
17,Nc1ccc2c(ccc3cccnc32)n1.O=[N+]([O-])c1cc([N+](=O)[O-])c(O)c([N+](=O)[O-])c1,inactive: 0.678%
18,O=C(O)CNc1ccc([As](=O)(O)O)cc1,inactive: -1.88%
19,COC(=O)C1(C)COP(=O)(Nc2ccccc2)OC1 (stereo not given),inactive: -5.06%
20,O=[N+]([O-])c1cccc(NC2=NCC(CBr)S2)c1 (stereo not given),inactive: 2.9%
